A short description of the series: Efflux ratio of apparent permeability across basolateral to apical membrane to apical to basolateral membrane in MDCK2-MDR1 measured upto 120 mins. The following applies: dog, mdck-ii, 2 h. It is filed as ADME, tissue-based, Canis lupus familiaris.

For the compound `CN1C(=O)CN=C(c2ccccc2)c2cc(Cl)ccc21` [DIAZEPAM], the Ratio is 0.89.

The record behind these values is ChEMBL document CHEMBL4706608, “Design and synthesis of 3-(4-pyridyl)-5-(4-sulfamido-phenyl)-1,2,4-oxadiazole derivatives as novel GSK-3β inhibitors and evaluation of their potential as multifunctional anti-Alzheimer agents” (Eur J Med Chem, 2021).
